## Reported vapor pressure values for industrial, environmental and drug-like chemicals

Vapor pressures (log10 mmHg) refer to near room temperature, 15 to 30 °C; higher is more volatile.
The databases behind each value are named after "via".

{"smiles": "CC(CC(C)(C)C)CC(C)(C)CC(C)(C)C", "stereo": "stereo not given", "vapor pressure (log10 mmHg)": "-1.275", "via": "eChemPortal"}
{"smiles": "ON=Cc1ccccn1", "vapor pressure (log10 mmHg)": "-3.664", "via": "eChemPortal"}
{"smiles": "Oc1cc(Cl)c(Cl)c(Cl)c1O", "vapor pressure (log10 mmHg)": "-3.095", "via": "OCHEM"}
{"smiles": "CCCCCC1CCC(C2CCC(CCC)CC2)CC1", "stereo": "stereo not given", "vapor pressure (log10 mmHg)": "-5.381", "via": "eChemPortal"}
{"smiles": "CC(C)(C)c1cc(CCC(=O)NNC(=O)CCc2cc(C(C)(C)C)c(O)c(C(C)(C)C)c2)cc(C(C)(C)C)c1O", "vapor pressure (log10 mmHg)": "-12", "via": "eChemPortal"}
{"smiles": "CCCCOC(=O)OCCCC", "vapor pressure (log10 mmHg)": "-0.765", "via": "eChemPortal"}
{"smiles": "CC1(C)COC(C)(CCCc2ccc(Cl)cc2)N1C(=O)n1ccnc1.CC1(C)COC(C)(CCCc2ccc(Cl)cc2)N1C(=O)n1ccnc1.O=C(O)/C=C/C(=O)O", "stereo": "stereo partly drawn", "vapor pressure (log10 mmHg)": "-7.39", "via": "OCHEM"}
{"smiles": "CO[Si](C)(CCCS[Si](C)(C)C(C)(C)C)OC", "vapor pressure (log10 mmHg)": "-2.435", "via": "eChemPortal"}
{"smiles": "O=C(/C=C/c1ccc2c(c1)OCO2)N(c1ccccc1)c1ccccc1", "vapor pressure (log10 mmHg)": "-12.28", "via": "eChemPortal"}
{"smiles": "CC(=O)N1CC(=O)N2CCc3ccccc3C2C1", "stereo": "stereo not given", "vapor pressure (log10 mmHg)": "-8.078", "via": "eChemPortal"}
{"smiles": "c1cn[nH]c1", "vapor pressure (log10 mmHg)": "-0.718", "via": "eChemPortal"}
{"smiles": "CS(=O)(=O)c1ccc(F)c(C(=O)O)c1", "vapor pressure (log10 mmHg)": "-4.985", "via": "eChemPortal"}
{"smiles": "Clc1cccc(-c2c(Cl)cc(Cl)cc2Cl)c1", "vapor pressure (log10 mmHg)": "-3.896", "via": "OCHEM"}
{"smiles": "CCN1CCCC1=O", "vapor pressure (log10 mmHg)": "-0.759", "via": "eChemPortal"}
{"smiles": "CC(=O)/C=C(\\C)[C@@]12CCC[C@@]3(C)[C@@H]1CC[C@@]3(C)C2", "vapor pressure (log10 mmHg)": "-5.634", "via": "eChemPortal"}
{"smiles": "C=CCCCCCCCC(=O)N(C)C", "vapor pressure (log10 mmHg)": "-2.745", "via": "eChemPortal"}
{"smiles": "CCO[Si](CCCCl)(OCC)OCC", "vapor pressure (log10 mmHg)": "-0.635", "via": "eChemPortal"}
{"smiles": "CC(CC=O)c1ccccc1", "stereo": "stereo not given", "vapor pressure (log10 mmHg)": "-0.634", "via": "eChemPortal"}
{"smiles": "SCCSCCS", "vapor pressure (log10 mmHg)": "-2.173", "via": "eChemPortal"}
{"smiles": "CC(CO)(CO)CO", "vapor pressure (log10 mmHg)": "-4.62", "via": "eChemPortal"}
{"smiles": "CC(C)(NC(=O)NCc1ccccc1Cl)c1ccccc1", "vapor pressure (log10 mmHg)": "-9.001", "via": "OCHEM"}
{"smiles": "CCCCCCCCCCCCCCCCCCCCCCOC(=O)CCCCCCCCC(=O)OCCCCCCCCCCCCCCCCCCCCCC", "vapor pressure (log10 mmHg)": "-5.011", "via": "eChemPortal"}
{"smiles": "O=C1CCC2CCCCC2O1", "stereo": "stereo not given", "vapor pressure (log10 mmHg)": "-2.803", "via": "eChemPortal"}
{"smiles": "CC(c1ccccc1)c1ccc(O)cc1O", "stereo": "stereo not given", "vapor pressure (log10 mmHg)": "-7.097", "via": "eChemPortal"}
{"smiles": "CC(C)(c1ccc(O)cc1)c1ccc(O)cc1", "vapor pressure (log10 mmHg)": "-8.714", "via": "eChemPortal"}
{"smiles": "CC12CCCC(C)(CC1)C2=NO", "vapor pressure (log10 mmHg)": "-3.034", "via": "eChemPortal"}
{"smiles": "CCOC(=O)N(CC)c1ccccc1", "vapor pressure (log10 mmHg)": "-1.875", "via": "eChemPortal"}
{"smiles": "CCCCC(CC)COC(=O)c1ccc(Nc2nc(Nc3ccc(C(=O)OCC(CC)CCCC)cc3)nc(Nc3ccc(C(=O)OCC(CC)CCCC)cc3)n2)cc1", "stereo": "stereo not given", "vapor pressure (log10 mmHg)": "-7.347", "via": "eChemPortal"}

Excerpt, the opening 4 entries:

{"smiles": "CC(CC(C)(C)C)CC(C)(C)CC(C)(C)C", "stereo": "stereo not given", "vapor pressure (log10 mmHg)": "-1.275", "via": "eChemPortal"}
{"smiles": "ON=Cc1ccccn1", "vapor pressure (log10 mmHg)": "-3.664", "via": "eChemPortal"}
{"smiles": "Oc1cc(Cl)c(Cl)c(Cl)c1O", "vapor pressure (log10 mmHg)": "-3.095", "via": "OCHEM"}
{"smiles": "CCCCCC1CCC(C2CCC(CCC)CC2)CC1", "stereo": "stereo not given", "vapor pressure (log10 mmHg)": "-5.381", "via": "eChemPortal"}

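The numbers are reported measurements, compiled and curated for the OPERA QSAR suite. One number stands for a compound and property, with no spread given. How each value was measured is not recorded, so precision varies. Where a salt, mixture or single isomer is drawn, the source does not say that exactly this form was tested. Unmarked limits or estimates from the upstream databases cannot be ruled out.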

Values as listed in the OPERA 2.9 repository of K. Mansouri.